# This is a selection; strong and weak results do not stand in their true shares. Results filed as inconclusive are left out. Calls of active or inactive are those of the source. Calls come from the whole dose curve; as a rule, active = well fitted activation curve with a large enough effect; inconclusive = small, poorly fitted or top-dose-only effect; inactive = no such curve, though single readings can be large or run the other way.
# Test: A quantitative high throughput screen for small molecules that induce DNA re-replication in MCF 10a normal breast cells. For activity, positive = re-replication: % of control where 0% means no effect. Note: nearly all actives have a fitted effect of over 50% in size.
# Details: MCF 10A DNA re-replication, Hoechst nuclear intensity, 48 h; series mostly up to 46.1 µM; activity, positive = re-replication: at the top concentration
# Potency is the fitted concentration of half-maximal effect.
SMILES,"activity, positive = re-replication",Potency
O=C(O)COc1ccc([As](=O)(O)O)cc1[N+](=O)[O-],inactive: 3.13%,–
Nc1ccccc1[As](=O)(O)c1ccccc1,inactive: -4.49%,–
O=P(Nc1nccs1)(c1ccccc1)c1nc2ccccc2s1 (configuration not stated),inactive: 12.1%,–
O=[N+]([O-])c1ccc2c(c1)nnn2O,inactive: -3.25%,–
CN(C(=O)Cc1ccc(Cl)c(Cl)c1)[C@H]1CC[C@@]2(CCCO2)C[C@@H]1N1CCCC1,inactive: -4.8%,–
CCOP1(=S)c2c(C)nn(CCC#N)c2N=C(c2ccc(F)cc2)N1C (configuration not stated),inactive: -3.17%,–
CN(C(=O)Cc1ccccc1)[C@@H]1CC[C@]2(CCCO2)C[C@H]1N1CCCC1,inactive: -25.3%,–
NC(=O)Nc1ccc([As](=O)(O)O)cc1,–,inactive
Cc1cccc(OCC(=O)OC2CN3CCC2CC3)c1 (configuration not stated),inactive: -14%,–
O=[As](O)(c1cccc(O)c1)c1cccc(O)c1,inactive: -12.7%,–
O=[As](O)(O)c1cccnc1,inactive: 11.2%,–
COc1cc(C(=O)NCC2(N3CCOCC3)CCCCC2)cc(Cl)c1OC(C)C,inactive: 22.7%,–
CS(=O)(=O)c1ccc(Cl)c(NC(=O)COC(=O)C(O)(c2ccccc2)c2ccccc2)c1,inactive: 12.3%,–
O=C(OC1CN2CCC1CC2)c1ccc(Cl)cc1 (configuration not stated),inactive: 0.503%,–
COc1cc(C2NCCC3(OCCO3)C2(C)C)cc(OC)c1OC (configuration not stated),inactive: -1.19%,–
CCOP(=O)(Nc1cccc2ccccc12)OCC,inactive: 0.476%,–
CCCOP(=S)(Nc1nc(N)cc(=O)[nH]1)OCCC,inactive: 2.03%,–
Nc1cccc2c([As](=O)(O)O)cccc12,inactive: -2.42%,–
Clc1n[nH]nc1-c1nn[nH][15n]1,inactive: -1.15%,–
CC(C)(C)C(=O)NC(Sc1ncccn1)C(Cl)(Cl)Cl (configuration not stated),inactive: 0.194%,–
CCOP(=O)(Nc1ccc(C)cn1)OCC,inactive: 8.24%,–
CN(CCCl)Cc1cc(Cl)c(NC2=NCCN2)c(Cl)c1,inactive: -15.5%,–
CCC1=CC2Cc3nc4ccc(Cl)cc4c(N)c3C(C1)C2 (configuration not stated),inactive: 1.49%,–
O=P1(Nc2ccccn2)COc2ccccc2OC1,inactive: 5.78%,–
CCOP(=O)(NC(=NC(C)c1ccccc1)NC(C)c1ccccc1)OCC (configuration not stated),inactive: 13.4%,–

SMILES,"activity, positive = re-replication",Potency
CC1(CBr)Cn2c(nc3ccccc3c2=O)S1 (configuration not stated),inactive: -0.498%,–
CC(C)/C=N\N=C(\N)N[N+](=O)[O-],inactive: -5.03%,–
COc1ccccc1CNC(=O)COC(=O)C(O)(c1ccccc1)c1ccccc1,inactive: -2.73%,–
O=C(/C=C/c1ccccc1)OC1CN2CCC1CC2 (configuration not stated),inactive: 0.0767%,–
CCCC1OP(=O)(Nc2ccccc2)OCC1CC (configuration not stated),inactive: 10.9%,–
CN(C)C1(CNC(=O)c2ccc(S(C)(=O)=O)cc2)CCCCC1,inactive: -0.118%,–
Cc1nn(-c2ccccc2)c2c1P(=O)(N1CCOCC1)N(C)C(c1ccccc1)=N2 (configuration not stated),inactive: 1.97%,–
Cc1ccc(C(=O)OC2CN3CCC2CC3)cc1 (configuration not stated),inactive: 3.54%,–
Cc1ccc(OCC(=O)OC2CN3CCC2CC3)cc1 (configuration not stated),inactive: -6.72%,–
O=[As](O)(c1cccs1)c1cccs1,inactive: 10.8%,–
NS(=O)(=O)c1cccc(NC(=O)COC(=O)C(O)(c2ccccc2)c2ccccc2)c1,inactive: 1.3%,–
O=P1(Nc2ccc(Br)cn2)COc2ccccc2OC1,inactive: 1.07%,–
Nc1cccc([As](=O)(O)c2ccccc2)c1,inactive: -3.64%,–
O=P1(Nc2ncccn2)COc2ccccc2OC1,inactive: -3.92%,–
CCCCOc1ccc(C(=O)NCC2(N3CCCCC3)CCCCC2)cc1OC,inactive: 1.36%,–
Cc1cc(SC(NC(=O)c2ccccc2)C(Cl)(Cl)Cl)nc(C(C)C)n1 (configuration not stated),inactive: 7.94%,–
CC1CCNP(=O)(N(CCCl)CCCl)O1 (configuration not stated),inactive: -1.14%,–
CCOC(=O)Nc1ccc([As](=O)(O)O)c(O)c1,inactive: 2.22%,–
O=[N+]([O-])c1ccc(Nc2ccc(Oc3ccc([N+](=O)[O-])cc3[N+](=O)[O-])cc2)c([N+](=O)[O-])c1,inactive: 12.8%,–
Cc1cc(SC(NC=O)C(Cl)(Cl)Cl)ncn1 (configuration not stated),inactive: -7.24%,–
O=P(Nc1ccccn1)(c1cccc2ccccc12)c1cccc2ccccc12,inactive: 12.9%,–
CCOC(=O)Nc1cccc([As](=O)(O)O)c1,inactive: 3.96%,–
O=C(COc1ccccc1)OC1CN2CCC1CC2 (configuration not stated),inactive: 0.376%,–
O=C(Nc1ccncc1[N+](=O)[O-])c1ccc([N+](=O)[O-])cc1[N+](=O)[O-],inactive: -8.65%,–
COP1(=S)c2c(C)nn(CCC#N)c2N=C(c2ccc(F)cc2)N1C (configuration not stated),inactive: -1.73%,–

SMILES,"activity, positive = re-replication",Potency
CCC(C)N(CC(C)C)C(=S)SC(NC(C)=O)C(Cl)(Cl)Cl (configuration not stated),inactive: 23.4%,–
CCOC(=O)c1ccc(NC(=O)C(C)(CCl)SC)cc1 (configuration not stated),inactive: -19.4%,–
O=C(OC1CN2CCC1CC2)c1cccc([N+](=O)[O-])c1 (configuration not stated),inactive: -8.16%,–
COc1ccc2nc(NP(=O)(c3ccccc3)c3ccccc3)sc2c1,inactive: -6.44%,–
COc1cc(I)ccc1[As](=O)(O)O,inactive: 5.82%,–
O=P1(N(CCCl)CCCl)Nc2ccccc2N1,inactive: -0.472%,–
O=P1(N(CCCl)CCCl)OCCCN1CCCl (configuration not stated),inactive: -6.17%,–
O=C(OC1CN2CCC1CC2)C12CC3CC(CC(C3)C1)C2 (configuration not stated),inactive: -3.03%,–
Cc1cc(=O)[nH]c(N[N+](=O)[O-])n1,inactive: 7.42%,–
Cc1c2c(nc3ccccc13)SC(C(Cl)Cl)C2 (configuration not stated),inactive: 21.3%,–
COc1ccc(N/C(=N/P(=O)(N2CCOCC2)N2CCOCC2)N2CCOCC2)cc1,inactive: -4.79%,–
O=[N+]([O-])c1cc(Oc2ccc([N+](=O)[O-])cc2C(F)(F)F)cc([N+](=O)[O-])c1,inactive: -2.56%,–
Cc1ccc2nc3c(c(C)c2c1)CC(C(Cl)Cl)S3 (configuration not stated),–,active: 20.6 µM
Cc1ccc(OP(=O)(Nc2ccc([N+](=O)[O-])cn2)Oc2ccc(C)cc2)cc1,inactive: -3.45%,–
C[As](=O)(O)c1cccc(C(=O)O)c1,inactive: 7.51%,–
O=[N+]([O-])c1ccc(-c2cc([N+](=O)[O-])c(O)c([N+](=O)[O-])c2)cc1,inactive: 17.5%,–
COc1cc(C(=O)NCC2(N3CCOCC3)CCCCC2)ccc1OCC(C)C,inactive: 22.7%,–
CC(C)NC(=O)NP(=O)(Oc1ccccc1)Oc1ccccc1,inactive: 10.8%,–
CCN(CC)C(=S)SC(NC=O)C(Cl)(Cl)Cl (configuration not stated),inactive: 5.23%,–
O=C(OC1CN2CCC1CC2)c1cccc2[nH]cnc12 (configuration not stated),inactive: 3.29%,–
O=[N+]([O-])c1cc([N+](=O)[O-])c(-c2ccn[nH]2)s1,inactive: 3.75%,–
COC(=O)C1(C)COP(=O)(N2CCCCCC2)OC1 (configuration not stated),inactive: 1.89%,–
CC(C)c1ccc(OP(=O)(Nc2ccccn2)Oc2ccccc2F)cc1 (configuration not stated),inactive: 9.68%,–
ClCCSc1nnc(-c2cccnc2)o1,inactive: -0.211%,–
Cc1cc(SC(NC(=O)c2ccc(F)cc2)C(Cl)(Cl)Cl)ncn1 (configuration not stated),inactive: -7.76%,–

SMILES,"activity, positive = re-replication",Potency
CCOP(=O)(Nc1ccccc1)OCC,inactive: -6.82%,–
CC(=O)Nc1ccc([As](=O)(O)O)cc1,inactive: -0.498%,–
O=C(O)c1ccccc1[As](=O)(O)O,–,active: 23.1 µM
CCCC1OP(N)(=O)OCC1CC (configuration not stated),inactive: 4.38%,–
O=P(Nc1nc2ccc(Cl)cc2s1)(c1ccccc1)c1ccccc1,inactive: -20.3%,–
CCN(N=Nc1nonc1N)c1nonc1N,inactive: -0.407%,–
Nc1cccc2ccc([As](=O)(O)O)cc12,inactive: -4.08%,–
COc1ccccc1OP(=O)(Nc1ccc(C)cn1)Oc1ccccc1OC,inactive: 5.39%,–
Cc1ccc(OP(=O)(Nc2nccs2)Oc2ccc(C)cc2)cc1,inactive: 6.11%,–
CN1CCCC(OC(=O)C(c2ccccc2)c2ccccc2)C1 (configuration not stated),inactive: 7.39%,–
Clc1ccc(Cl)c(NC2=NCC(CBr)S2)c1 (configuration not stated),inactive: 18.7%,–
Cc1ccc(N/C(=N/P(=O)(N2CCOCC2)N2CCOCC2)N2CCOCC2)cc1,inactive: -5.28%,–
Nc1cc(N)c2nonc2c1[N+](=O)[O-],inactive: -2.71%,–
CC(C)CC(=O)NC(Sc1ccc(Cl)cc1)C(Cl)(Cl)Cl (configuration not stated),inactive: 4.57%,–
Oc1ccccc1CNc1ccccn1,inactive: 6.48%,–
O=C(NC(Sc1ccncn1)C(Cl)(Cl)Cl)c1ccccc1 (configuration not stated),inactive: 0.046%,–
CC(=O)N1C2C3N(C(C)=O)C1C1N(C(C)=O)C(C(N1C(C)=O)N3C(C)=O)N2C(C)=O,inactive: -8.51%,–
O=[N+]([O-])c1cccc2n[nH]nc12,inactive: -1.84%,–
Cc1ccc(NP(=O)(Oc2ccccc2)Oc2ccccc2)nc1,inactive: -8.65%,–
CCc1nc2c(n1)c1c(non1O)c1c2no[n+]1[O-],–,active: 2.91 µM
COc1ccc(C2=NCC(CBr)S2)cc1 (configuration not stated),inactive: -3.62%,–
CC(C)=N/N=C(\N)N[N+](=O)[O-],inactive: 17.8%,–
CN(C)C(=O)OCCc1n(C)cc[n+]1C,inactive: -7.31%,–
Nc1ccc([As](=O)(O)c2ccc(N)cc2)cc1,inactive: -0.0436%,–
CCN(/C(=N/P(=O)(N1CCOCC1)N1CCOCC1)N1CCOCC1)c1ccc(OC)cc1,inactive: -0.0901%,–

SMILES,"activity, positive = re-replication",Potency
O=C(Nc1cc([As](=O)(O)O)ccc1O)c1ccccc1,inactive: 0.543%,–
O=P1(N(CCCl)CCCl)OCCCS1 (configuration not stated),inactive: 0.606%,–
COC(=O)C1(C)COP(=O)(Nc2ccccc2)OC1 (configuration not stated),inactive: -1.55%,–
O=[N+]([O-])c1cccc(NC2=NCC(CBr)S2)c1 (configuration not stated),inactive: 1.28%,–
O=C(O)CNc1ccc([As](=O)(O)O)cc1,inactive: 8.84%,–
CC(C)(C)C(=O)NC(Sc1ccncn1)C(Cl)(Cl)Cl (configuration not stated),inactive: -2.31%,–
O=[N+]([O-])c1ncn(CCn2ncnc2[N+](=O)[O-])n1,inactive: -0.0068%,–
O=P(Nc1nc2ccccc2s1)(c1ccccc1)c1ccccc1,inactive: 0.518%,–
C[C@H]1OP(=O)(Oc2ccccc2)[C@H](O)[C@H](O)[C@H]1N=[N+]=[N-] (some centres not stated),inactive: 0.766%,–
CN(C(=O)Cc1ccccc1)[C@H]1CC[C@@]2(CCCO2)C[C@@H]1N1CCCC1,inactive: 1.92%,–
COc1ccc(N)c([N+](=O)[O-])c1[N+](=O)[O-],inactive: -41.7%,–
CN(C)C1(CNC(=O)c2ccc(Cl)c(S(N)(=O)=O)c2)CCCCC1,inactive: -16.8%,–
O=P(Nc1ccccn1)(c1ccc(Br)cc1)c1ccc(Br)cc1,inactive: -0.863%,–
C(Cc1nn[nH]n1)Cc1nn[nH]n1,inactive: 2.46%,–
Nc1ccc([As](=O)(O)c2ccc([N+](=O)[O-])cc2)cc1,inactive: -3.03%,–
O=C(OC1CN2CCC1CC2)c1cccc(Cl)c1 (configuration not stated),inactive: -2.26%,–
O=[N+]([O-])c1ncn(CCn2cnc([N+](=O)[O-])n2)n1,inactive: 0.281%,–
O=[N+]([O-])c1ccc(O)c(/C=N/Nc2ccc([N+](=O)[O-])cc2[N+](=O)[O-])c1,inactive: 13.1%,–
O=[As](O)(c1ccccc1)c1ccc(O)cc1,inactive: -4.8%,–
c1nnnn1CCn1cnnn1,inactive: -0.257%,–
O=P(Nc1nccs1)(c1ccccc1)c1ccccc1,inactive: -4.73%,–
CC(C)C(=O)NC(Sc1ccccc1)C(Cl)(Cl)Cl (configuration not stated),inactive: -1.85%,–

# — PubChem BioAssay AID624296 (National Center for Advancing Translational Sciences (NCATS), 2012)
